From PMC10344656, “Plasma pharmacokinetics of tigolaner, emodepside, and praziquantel following topical administration of a combination product (Felpreva®) and of intravenous administration of the individual active ingredients in cats” (Current Research in Parasitology & Vector-borne Diseases, 2023)
Read-outs that look alike come from different tables or passages of the source.

Columns and labels:
[1] = cats
[2] = Excretion in urine and faeces after topical Felpreva (Study 3); settings: Study 3, topical Felpreva 0.148 ml/kg
[3] = single topical Felpreva 0.148 ml/kg (1x), mean
[4] = Study 1, single topical Felpreva 0.148 ml/kg (1x), n = 10, plasma, geometric mean (geometric CV%)

SMILES	plasma elimination half-life [1, 3] [days]	AUCinf (total plasma exposure) [1, 4]	AUClast [1, 4]	Cmax (peak plasma concentration) [1, 4]	Tmax [1, 4]	Tmax [1, 3] [days]	amount found in urine ([2]; cats, 28 days)	route of clearance ([2]; cats, 28 days)	cleared via the faeces, share of dose ([2]; cats, within 28 days, HPLC-MS/MS) [%]	renal clearance, share of dose ([2]; cats, within 28 days, urine, HPLC-MS/MS) [%]	administered dose excreted after 28 days, females ([2]; female cats, mainly via faeces) [%]	administered dose excreted after 28 days, males ([2]; male cats, mainly via faeces)
CC(C)C[C@H]1C(=O)O[C@H](Cc2ccc(N3CCOCC3)cc2)C(=O)N(C)[C@@H](CC(C)C)C(=O)O[C@H](C)C(=O)N(C)[C@@H](CC(C)C)C(=O)O[C@H](Cc2ccc(N3CCOCC3)cc2)C(=O)N(C)[C@@H](CC(C)C)C(=O)O[C@H](C)C(=O)N1C [Emodepside, emodepside]	14.5	–	–	–	–	–	–	–	–	–	–	–
Cn1nc(C(F)(F)C(F)(F)F)c(C(F)(F)F)c1-n1cc(-c2ccc(Cl)c(C(=O)NC3(C#N)CC3)c2)cn1 [Tigolaner, tigolaner]	24	1566 (32.9) mg∗h/l	1516 (32.8) mg∗h/l	1245.1 (35.6) μg/l	297.0 (40.5) h	12	Neglectable amounts	mainly cleared via the faeces	54	< 0.5	~53.2	approximately 55.5%
